{
  "source": "patent US20230227547A1",
  "about": "“ANTIBODY-PAYLOAD CONJUGATES WITH ENHANCED DELIVERY DOMAIN AND USES THEREOF” (IPROGEN BIOTECH INC., priority 2019, published 2023)",
  "type_in_all_cases": "cell-based, human",
  "key": {"BT474 cells": {"test_system": "BT474 cells", "assay": "Delivery assay, Z-RFP fluorescence by FACS, BT474", "details": "increasing antibody concentrations (FIG. 9)"}, "OVCAR3 cells": {"test_system": "OVCAR3 cells", "assay": "Delivery assay, Z-RFP fluorescence by FACS, OVCAR3", "details": "100 nM antibody + 100 nM Z-RFP, 4 hours (FIG. 7)"}, "RT4V6 cells": {"test_system": "RT4V6 cells", "assay": "Delivery assay, Z-RFP fluorescence by FACS, RT4V6", "details": "100 nM, 4 hours (FIG. 4) or 4-100 nM, 3 hours (FIG. 28)"}},
  "data": [
    {"substance": "Trastuzumab [anti-HER2 mAb]", "values": [
      {"measurement": "effect of LL37 conjugation on delivery of the mAb (in words)", "setting": "BT474 cells", "result": "greatly amplifies the delivery"},
      {"measurement": "delivery efficiency (in words)", "setting": "OVCAR3 cells", "result": "delivery efficiency is low"},
      {"measurement": "delivery (in words)", "setting": "RT4V6 cells", "result": "poorly delivered"}
    ]}
  ]
}
